Measured values from publication PMC6499816, “Molecular determinants regulating selective binding of autophagy adapters and receptors to ATG8 proteins” (Nature Communications, 2019).

Columns and labels:
Assay in all cases: BLI; biotinylated LIR peptide immobilised on streptavidin biosensors (Octet Red 96), ATG8 protein in solution; 25 mM Tris pH 7.5, 150 mM NaCl, 0.5 mM TCEP, 0.1% Tween-20, 1 mg/ml BSA, 25 °C; Kd from response against concentration, Y=Rmax*X/(Kd+X)
FIP200 T704I LIR peptide = target: FIP200 T704I LIR peptide
PCM1 K1957I LIR peptide = target: PCM1 K1957I LIR peptide
PCM1 WT LIR peptide = target: PCM1 WT LIR peptide

| Substance | Kd (FIP200 T704I LIR peptide) | Kd (PCM1 K1957I LIR peptide) | Kd (PCM1 WT LIR peptide) |
| --- | --- | --- | --- |
| LC3B (from UniProt Q9GZQ8 1-120) (natural protein) | 64.5 µM | 10.3 µM |  |
| LC3B Q26K (from UniProt Q9GZQ8 1-120) (natural protein) |  |  | 359 µM |
